Data from paper PMC11241344, “TriplEP-CPP: Algorithm for Predicting the Properties of Peptide Sequences” (International Journal of Molecular Sciences, 2024).

How the values were obtained:
[1] = system: human HaCaT keratinocyte cells; type: cell-based; conditions: MTT test, peptide C=0,1 mM (100 µM), 24 h incubation at 37 °C, 5% CO2, absorbance 570/690 nm, mean ± standard deviation (n = 5)
Description: (§1) Since the peptides predicted as CPPs are intended to be used as safe intracellular delivery systems, it is necessary to evaluate the degree of their toxicity to mammalian cells. For this purpose, the compounds investigated were added to human HaCaT keratinocyte cells and McCoy mouse fibroblast cells at a final concentration of 100 μM.
(§2) One of the most important criteria in the search for new penetrating peptides is to ensure the safety of their further use and to assess potential problems and risks. […] Therefore, we incubated human HaCaT keratinocyte and McCoy mouse fibroblast cells with our synthesized compounds at a final concentration of 100 μM for 24 h at 37 °C. […] The use of a fluorescent tag makes it possible to observe the penetration of the peptides as well as their distribution and localization within the cells. For this purpose, the synthesized compounds were conjugated with the fluorescent tag NBD-F and incubated with cells at a final concentration of […] for 4 h at 37 °C. […]
(§3) The cytotoxicity of the peptides was assessed using the MTT-test (3-(4,5-dimethylthiazol-2-yl)2,5-diphenyltetrazolium bromide) according to a standard protocol. […] The amount of MTT was measured spectrophotometrically at 570 nm and 690 nm using a Multiskan Ascent microplate photometer (ThermoScientific, Waltham, MA, USA). […]

[2] = system: McCoy mouse fibroblast cells; type: cell-based; conditions: MTT test, peptide C=0,1 mM (100 µM), 24 h incubation at 37 °C, 5% CO2, absorbance 570/690 nm, mean ± standard deviation (n = 5)
Description: as §1, §2, §3

## CC[C@H](C)[C@H](NC(=O)[C@H](CCCCN)NC(=O)[C@@H](NC(=O)[C@H](CCC(N)=O)NC(=O)[C@@H](N)CCCNC(=N)N)[C@@H](C)CC)C(=O)N[C@@H](Cc1c[nH]c2ccccc12)C(=O)N[C@@H](Cc1ccccc1)C(=O)N[C@@H](CCC(N)=O)C(=O)N[C@@H](CC(N)=O)C(=O)N[C@@H](CCCNC(=N)N)C(=O)N[C@@H](CCCNC(=N)N)C(=O)N[C@@H](CCSC)C(=O)N[C@@H](CCCCN)C(=O)N[C@@H](Cc1c[nH]c2ccccc12)C(=O)N[C@@H](CCCCN)C(=O)N[C@@H](CCCCN)C(=O)O [penetratin, reference compound]
[1]
  Percentage of Viable Cells, HaCaT: 71.8 ± 3.0%
[2]
  Percentage of Viable Cells, McCoy: 70.9 ± 5.3%
